This is an account of results in US9434711B2 (Janssen Pharmaceutica, NV, priority 2007, dated 2016).

Sequences of proteins named here, by UniProt entry; tags and fusion partners are left off. Residues count along the entry.
UniProt Q1A7N1, 1-1104: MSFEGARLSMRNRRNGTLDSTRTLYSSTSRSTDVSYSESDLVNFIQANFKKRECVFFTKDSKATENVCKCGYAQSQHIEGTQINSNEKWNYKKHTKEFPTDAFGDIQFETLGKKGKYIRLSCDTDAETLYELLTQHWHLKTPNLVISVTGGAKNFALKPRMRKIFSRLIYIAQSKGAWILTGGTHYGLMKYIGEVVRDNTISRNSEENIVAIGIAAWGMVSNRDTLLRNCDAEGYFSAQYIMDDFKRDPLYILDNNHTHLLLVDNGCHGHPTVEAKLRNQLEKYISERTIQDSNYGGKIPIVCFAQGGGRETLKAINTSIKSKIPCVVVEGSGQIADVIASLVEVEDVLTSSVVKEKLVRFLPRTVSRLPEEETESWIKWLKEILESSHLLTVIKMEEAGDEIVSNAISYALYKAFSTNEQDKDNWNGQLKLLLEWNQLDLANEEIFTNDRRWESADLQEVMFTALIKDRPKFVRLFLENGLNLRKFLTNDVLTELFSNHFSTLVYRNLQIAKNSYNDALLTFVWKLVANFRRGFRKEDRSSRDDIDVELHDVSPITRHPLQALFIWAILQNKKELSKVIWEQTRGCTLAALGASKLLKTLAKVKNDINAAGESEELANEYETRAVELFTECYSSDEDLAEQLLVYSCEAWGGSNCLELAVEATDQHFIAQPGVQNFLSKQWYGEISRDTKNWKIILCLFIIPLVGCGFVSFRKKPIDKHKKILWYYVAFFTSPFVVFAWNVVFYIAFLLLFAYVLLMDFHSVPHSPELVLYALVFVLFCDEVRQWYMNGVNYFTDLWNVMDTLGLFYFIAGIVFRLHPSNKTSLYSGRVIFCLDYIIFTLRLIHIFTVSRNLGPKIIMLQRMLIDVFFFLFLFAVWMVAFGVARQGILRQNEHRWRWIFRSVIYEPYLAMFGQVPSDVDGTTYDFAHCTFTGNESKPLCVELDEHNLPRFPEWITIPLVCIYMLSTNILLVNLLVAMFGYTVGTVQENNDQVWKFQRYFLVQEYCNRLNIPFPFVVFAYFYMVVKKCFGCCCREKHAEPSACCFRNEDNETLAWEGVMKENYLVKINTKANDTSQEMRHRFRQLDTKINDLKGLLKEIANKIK

This assay has as its target canine TRPM8 (Canis lupus familiaris, UniProt Q1A7N1). Put plainly: In Vitro Canine TRPM8 Functional Assay (Ca2+ fluorescence, icilin activation). Format: cell-based. The settings on record: HEK293 cells stably expressing canine TRPM8, eight-point dose-response. Here is the method:
The functional activity of compounds of the formula (I) was determined by measuring changes in intracellular calcium concentration using a Ca^2+-sensitive fluorescent dye. The changes in fluorescent signal were monitored by a fluorescence plate reader, either a FLIPR™ (Molecular Devices) or FDSS (Hamamatsu). Increases in intracellular Ca^2+ concentration were readily detected upon activation with icilin.
At 24 hrs prior to assay, HEK293 cells stably expressing canine TRPM8 were seeded in culture medium in black wall, clear-base poly-D-lysine coated 384-well plates (BD Biosciences, NJ, USA) and grown overnight in 5% CO2 at 37° C. On assay day, growth media was removed and cells were loaded with Calcium 3 Dye (Molecular Devices) for 35 min at 37° C., under 5% CO2 and then for 25 min at room temperature and atmosphere. Subsequently, cells were tested for agonist-induced increases in intracellular Ca^2+ levels using FLIPR™ or FDSS. Cells were challenged with a compound of the Formula (I) (at varying concentrations) and intracellular Ca^2+ was measured for 5 min prior to the addition of icilin to all wells to achieve a final concentration that produces approximately an 80% maximal response. EC50 or IC50 values for compounds of the present invention were determined from eight-point dose-response studies. Curves were generated using the average of quadruplicate wells for each data point.
On to `Cc1c(N(Cc2ccc(OC(F)(F)F)cc2)S(=O)(=O)c2nc3ccccc3[nH]2)sc2ccccc12` [Compound 729, N-(3-Methyl-benzo[b]thiophen-2-yl)-N-(4-trifluoromethoxy-benzyl)-1H-benzimidazole-2-sulfonamide], for which the IC50 was found to be 0.0962 µM.

Regarding `COC(=O)[C@@H](C)CN(c1sc2ccccc2c1Br)S(=O)(=O)c1ccccc1` [Compound 244, N-(3-Bromo-benzo[b]thiophen-2-yl)-N-[2(S)-methyl-2-carbomethoxy-ethyl]-benzenesulfonamide], the IC50 is 0.0122 µM. Compared with the last compound, the IC50 is about 7.9-fold lower.

Consider `CCCCN(c1cc2ccccc2s1)S(=O)(=O)c1ccccc1` [Compound 117, N-(Benzo[b]thiophen-2-yl)-N-(butyl)-benzenesulfonamide], for which the IC50 turned out to be 0.0537 µM.

`Cc1c(N(CCCCC(F)(F)F)S(=O)(=O)CC(F)(F)F)sc2ccccc12` [Compound 673, N-(3-Methyl-benzo[b]thiophen-2-yl)-N-(5,5,5-trifluoro-pentyl)-2,2,2-trifluoro-ethanesulfonamide] returned an IC50 of 0.0738 µM.

`O=C(O)c1ccc(S(=O)(=O)N(CCC(F)(F)F)c2sc3ccccc3c2Br)cc1` [Compound 271, N-(3-Bromo-benzo[b]thiophen-2-yl)-N-(3,3,3-trifluoro-propyl)-4-carboxy-benzenesulfonamide]: the IC50 was found to be 0.0117 µM.

`COC(=O)[C@H](C)CN(c1sc2ccccc2c1Br)S(=O)(=O)c1ccccc1` [Compound 245, N-(3-Bromo-benzo[b]thiophen-2-yl)-N-[2(R)-methyl-2-carbomethoxy-ethyl]-benzenesulfonamide] yielded an IC50 of 0.0142 µM.
